HCMV NEC inh: inhibitors of HCMV UL50-UL53 interaction, biochemical, HTRF. HCMV UL50-UL53 nuclear egress complex (human cytomegalovirus). inhibition, % (test concentration not listed). normalized percent inhibition. 190,000 compounds, 0.15% hits; in the data active means inhibition above about 27%, passing the limit was not always enough
GIV Gai3 FP: blocks GIV peptide binding to rat Galpha-i3; P08753; Galpha-i3/FITC-GIV peptide fluorescence polarization, 90 min; stronger effect = lower value; scaled: aluminum fluoride 0%, vehicle 100%; percent of control (FP), % (no concentration beside the values); 210,000 tested, 0.42% active; AID 1224905;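 active = replicate mean at 85% of control or lower, very high polarization wells dropped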;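 also: wells of about 15 µL received 100 nL stock; the first replicate is given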
Each line names hits and unclear results; the compound was inactive in the other large screens. The list is not random: actives were taken first. Their share in the collection is about 0.46%.

c1ccc(-c2nc3nc(-c4ccccc4)c(-c4ccccc4)n3nc2-c2ccccc2)cc1	GIV Gai3 FP -30.6 (no result: HCMV NEC inh)
CCOc1ccc(C2CC(c3c(O)n(C)c(=S)n(C)c3=O)=NN2C(C)=O)cc1 (stereo unspecified)	none
CCCN1CCN(S(=O)(=O)c2cc(-c3nnc(C4CC4)o3)co2)CC1	none (no result: HCMV NEC inh)
Cc1[nH]c(=O)[nH]c(=O)c1S(=O)(=O)N1c2ccccc2CC1C (stereo unspecified)	GIV Gai3 FP -73.1 (no result: HCMV NEC inh)
CC1Cc2ccccc2N1S(=O)(=O)c1ccc2[nH]c(=O)[nH]c2c1 (stereo unspecified)	none (no result: GIV Gai3 FP)
CC1(C)C(=O)NC2=C1C(=O)C(=O)c1ccccc12	HCMV NEC inh 107.3 (no result: GIV Gai3 FP)
O=C1C2=C(NC3=C(C(=O)c4ccccc43)C23C(=O)Nc2ccccc23)c2ccccc21	none
O=C(NCCCN1CCCC1=O)c1ccc(C2Nc3ccccc3S(=O)(=O)N2)cc1 (stereo unspecified)	none (no result: HCMV NEC inh)
O=C1S/C(=C\C=C\c2ccco2)C(=O)N1c1ccccc1	none
O=C(O)C(Cc1ccccc1)N1C(=O)/C(=C/C=C/c2ccco2)SC1=S (stereo unspecified)	HCMV NEC inh 70.5
S=C(Nc1ccc(Oc2ccccc2)cc1)N(CCN1CCCCCC1)Cc1ccco1	none
O=C(Cc1coc2ccc3ccccc3c12)OCC(=O)c1cc2c3c(c1)CC(=O)N3CCC2	none (no result: GIV Gai3 FP)
CCOC(=O)c1c(-c2cccs2)csc1/N=C/c1c(O)n(C)c2ccccc12	GIV Gai3 FP 44.5 (no result: HCMV NEC inh)
CCOC(=O)c1c(/N=C/c2c(O)n(C)c3ccccc23)sc2c1CCC2	none (no result: HCMV NEC inh)
CCOC(=O)c1c(-c2cccs2)csc1NC=O	none (no result: HCMV NEC inh)
CCOC(=O)c1c(/N=C/c2c(O)n(C)c3ccccc23)sc(C)c1C	GIV Gai3 FP 52.3 (no result: HCMV NEC inh)
CC1CCCCC1NC(=O)CC#N (stereo unspecified)	none (no result: GIV Gai3 FP)
CC1CCN(c2nc3ccccn3c(=O)c2/C=C2/SC(=S)N(CC3CCCO3)C2=O)CC1 (stereo unspecified)	none (no result: HCMV NEC inh)
Cc1cccn2c(=O)c(/C=C3\SC(=S)N(CC4CCCO4)C3=O)c(N3CCN(C)CC3)nc12 (stereo unspecified)	GIV Gai3 FP -29.6
Cc1cccn2c(=O)c(/C=C3\SC(=S)N(Cc4ccccc4)C3=O)c(N3CCN(C)CC3)nc12	none
CC(c1ccccc1)N1C(=O)/C(=C\c2c(N3CCN(CCO)CC3)nc3ccccn3c2=O)SC1=S (stereo unspecified)	none (no result: HCMV NEC inh)
CCN1CCN(c2nc3ccccn3c(=O)c2/C=C2\SC(=S)N(CC)C2=O)CC1	none
COCCCN1C(=O)/C(=C/c2c(N3CCN(CCO)CC3)nc3ccccn3c2=O)SC1=S	GIV Gai3 FP 23.2 (no result: HCMV NEC inh)
COCCN1C(=O)/C(=C/c2c(N3CCN(CCO)CC3)nc3ccccn3c2=O)SC1=S	GIV Gai3 FP -29.1
O=C1/C(=C\c2c(N3CCN(CCO)CC3)nc3ccccn3c2=O)SC(=S)N1CC1CCCO1 (stereo unspecified)	GIV Gai3 FP 25.1 (no result: HCMV NEC inh)
COc1ccc(OC)c(NC(=O)CSc2nc3n[nH]c(C)c3c(=N)n2-c2cc(Cl)ccc2C)c1	none (no result: HCMV NEC inh)
CC1CCCCN1C(=O)Cn1c(=O)n(CC2CCC(C(=O)NC3CCCC3)CC2)c(=O)c2ccccc21 (stereo unspecified)	none
CCOC(=O)c1c(NC(=O)C(C)Sc2nnc(CNC(=O)c3ccc([N+](=O)[O-])cc3)n2C)sc2c1CCC2 (stereo unspecified)	none (no result: HCMV NEC inh)
Cc1nnc(Sc2cc(C(=O)NCCN(C)Cc3ccccc3)c3ccccc3n2)s1	none (no result: HCMV NEC inh)
O=c1c(=O)n(-c2ccccc2)ccn1Cc1ccc(F)cc1	none
O=C1c2ccccc2-c2nc3nnnn3nc21	HCMV NEC inh 102.6 (no result: GIV Gai3 FP)
N#Cc1nc2c(nc1C#N)-c1ccccc1C2=O	none
CCn1c(SCC(N)=O)nnc1-c1c[nH]c2ccccc12	none (no result: GIV Gai3 FP)
O=C(NCc1ccncc1)C1CCN(c2ncnc3c2oc2ccccc23)CC1	none (no result: HCMV NEC inh)
O=C(c1cccc([N+](=O)[O-])c1)N1N=C(C(F)(F)C(F)(F)C(F)(F)F)CC1(O)c1ccccc1 (stereo unspecified)	none (no result: HCMV NEC inh)
Cc1cc(C)cc(NC(=O)CCC2=NS(=O)(=O)c3ccccc3N2)c1	none
Cc1ccc(/C=C2/CC(C)C/C(=C\c3ccc(C)o3)C2=O)o1 (stereo unspecified)	none
Cc1ccc(/C=C2\CC/C(=C\c3ccc(C)o3)C2=O)o1	GIV Gai3 FP -74.8 (no result: HCMV NEC inh)
CCc1ccc(C2C(C#N)=C(N)SC(N)=C2C#N)cc1	none (no result: GIV Gai3 FP)
CCOc1ccccc1C1C(C#N)=C(N)SC(N)=C1C#N	GIV Gai3 FP -78.3
Cc1cccn2c(=O)c(/C=C3\SC(=S)N(C)C3=O)c(N3CCCC3)nc12	GIV Gai3 FP -36.2 (no result: HCMV NEC inh)
Cc1cccn2c(=O)c(/C=C3\SC(=S)N(CCCC(=O)O)C3=O)c(N3CCCCC3)nc12	GIV Gai3 FP 39.6 (no result: HCMV NEC inh)
COCCCN1C(=O)/C(=C\c2c(N3CC(C)OC(C)C3)nc3c(C)cccn3c2=O)SC1=S (stereo unspecified)	none (no result: HCMV NEC inh)
Cc1cccn2c(=O)c(/C=C3\SC(=S)N(CCCC(=O)O)C3=O)c(NCCc3ccccc3)nc12	none (no result: HCMV NEC inh)
CCC(C)c1ccc(NC(=S)NC(=O)c2ccco2)cc1 (stereo unspecified)	none (no result: HCMV NEC inh)
Cc1nc2c3ccccc3nc(SCc3cccc(C(F)(F)F)c3)n2n1	none (no result: HCMV NEC inh)
COc1ccc(-c2cc(=O)oc3cc(O)c(Cl)cc23)cc1	none
O=c1cc(C(F)(F)F)c2cc(Cl)c(O)cc2o1	GIV Gai3 FP -94.0
O=C(NC1CCCc2ccccc21)c1cccc(Nc2ccnc(-c3ccccc3)n2)c1 (stereo unspecified)	none
CCOc1cc(/C=C2/C(=O)N(c3ccccc3)N=C2C)ccc1OS(=O)(=O)c1ccccc1	HCMV NEC inh 60.0
COc1cc(/C=C2/C(=O)N(c3ccccc3)N=C2C)ccc1OS(=O)(=O)c1ccccc1[N+](=O)[O-]	none
CC(C)c1ccc2occ(CC(=O)Nc3nnc(C(C)C)s3)c2c1	none
OC(COc1ccccc1Cl)CN1CCCC1 (stereo unspecified)	none (no result: GIV Gai3 FP)
O=C(CSc1nnc(-c2ccccc2)n1-c1ccccc1)NC(=O)CN1CCCC1=O	none (no result: GIV Gai3 FP)
CCOc1ccc(C(=O)c2[nH]c(=O)c3ccccc3c2O)cc1	HCMV NEC inh 61.2
CCOc1ccc(C(=O)c2cccs2)cc1	none
CCN(CC)c1ccc2cc(-c3nc4ccccc4s3)c(=O)oc2c1	none
CCC(=O)Oc1ccc2cc(-c3nc4ccccc4n3C)c(=O)oc2c1	none (no result: GIV Gai3 FP)
CCN(CC)c1ccc2cc(-c3nc(-c4ccc(Cl)cc4Cl)cs3)c(=O)oc2c1	GIV Gai3 FP -69.2 (no result: HCMV NEC inh)
CCN(CC)c1ccc2cc(-c3nc4ccccc4n3C)c(=O)oc2c1	GIV Gai3 FP -24.2
O=C1NC(c2cc3c(cc2Br)OCO3)Oc2ccccc21 (stereo unspecified)	none
Cc1[nH]n(-c2ccccc2)c(=O)c1C(c1ccc(OC(=O)c2cccc([N+](=O)[O-])c2)cc1)c1c(C)[nH]n(-c2ccccc2)c1=O	none (no result: HCMV NEC inh)
O=C(CN1C(=O)c2ccccc2C1=O)NCc1cc(=O)n2nc(-c3ccccc3Cl)sc2n1	none
COc1ccc(C(=O)Nc2sc3c(c2-c2nc4ccccc4s2)CCN(C(C)C)C3)cc1OC	GIV Gai3 FP -3.2 (no result: HCMV NEC inh)
CCN1CCc2c(sc(NC(=O)CSc3ccccc3)c2-c2nc3ccccc3s2)C1	none (no result: HCMV NEC inh)
CC(=O)Nc1sc2c(c1-c1nc3ccccc3s1)CCN(C(C)C)C2	GIV Gai3 FP -3.2 (no result: HCMV NEC inh)
CCN1CCc2c(sc(NC(=O)c3ccc(Cl)cc3)c2-c2nc3ccccc3s2)C1	GIV Gai3 FP -3.2 (no result: HCMV NEC inh)

Screens deposited in PubChem BioAssay by ICCB-Longwood Screening Facility, Harvard Medical School.
